The source of these data is paper PMC3189208 (PLoS ONE, 2011).

One test concerns the target MOR. The conditions noted are these: cited from earlier work.
The test system of test [1] is MOR kinase pathways in HEK-MOR cells. It is filed as cell-based, human.

With (Leu^5)-enkephalin, the Kd – broadly, the free concentration of one partner at which half of the binding sites on the other are occupied at equilibrium, for simple one-to-one binding – on MOR is 7.4 nM. Also, the “maximal DMR response after SB202190 pretreatment vs untreated” value in test [1] was “significantly reduced”.
